In PubChem BioAssay AID504333 (National Center for Advancing Translational Sciences (NCATS), 2011):
This is a selection; strong and weak results do not stand in their true shares. Results filed as inconclusive are left out. A call without a number means that no potency is given here. Active and inactive are the calls of the source. Calls follow the shape of the dose curve; as a rule, active = well fitted inhibition curve with a large enough effect; inconclusive = small, poorly fitted or top-dose-only effect; inactive = no such curve, though single readings can be large or run the other way.

By UniProt entry, the sequences of proteins in these tests, tags left out. Where a name states a change or a piece, a line headed by the entry shows the natural chain unless it says otherwise.
UniProt Q9UIF8: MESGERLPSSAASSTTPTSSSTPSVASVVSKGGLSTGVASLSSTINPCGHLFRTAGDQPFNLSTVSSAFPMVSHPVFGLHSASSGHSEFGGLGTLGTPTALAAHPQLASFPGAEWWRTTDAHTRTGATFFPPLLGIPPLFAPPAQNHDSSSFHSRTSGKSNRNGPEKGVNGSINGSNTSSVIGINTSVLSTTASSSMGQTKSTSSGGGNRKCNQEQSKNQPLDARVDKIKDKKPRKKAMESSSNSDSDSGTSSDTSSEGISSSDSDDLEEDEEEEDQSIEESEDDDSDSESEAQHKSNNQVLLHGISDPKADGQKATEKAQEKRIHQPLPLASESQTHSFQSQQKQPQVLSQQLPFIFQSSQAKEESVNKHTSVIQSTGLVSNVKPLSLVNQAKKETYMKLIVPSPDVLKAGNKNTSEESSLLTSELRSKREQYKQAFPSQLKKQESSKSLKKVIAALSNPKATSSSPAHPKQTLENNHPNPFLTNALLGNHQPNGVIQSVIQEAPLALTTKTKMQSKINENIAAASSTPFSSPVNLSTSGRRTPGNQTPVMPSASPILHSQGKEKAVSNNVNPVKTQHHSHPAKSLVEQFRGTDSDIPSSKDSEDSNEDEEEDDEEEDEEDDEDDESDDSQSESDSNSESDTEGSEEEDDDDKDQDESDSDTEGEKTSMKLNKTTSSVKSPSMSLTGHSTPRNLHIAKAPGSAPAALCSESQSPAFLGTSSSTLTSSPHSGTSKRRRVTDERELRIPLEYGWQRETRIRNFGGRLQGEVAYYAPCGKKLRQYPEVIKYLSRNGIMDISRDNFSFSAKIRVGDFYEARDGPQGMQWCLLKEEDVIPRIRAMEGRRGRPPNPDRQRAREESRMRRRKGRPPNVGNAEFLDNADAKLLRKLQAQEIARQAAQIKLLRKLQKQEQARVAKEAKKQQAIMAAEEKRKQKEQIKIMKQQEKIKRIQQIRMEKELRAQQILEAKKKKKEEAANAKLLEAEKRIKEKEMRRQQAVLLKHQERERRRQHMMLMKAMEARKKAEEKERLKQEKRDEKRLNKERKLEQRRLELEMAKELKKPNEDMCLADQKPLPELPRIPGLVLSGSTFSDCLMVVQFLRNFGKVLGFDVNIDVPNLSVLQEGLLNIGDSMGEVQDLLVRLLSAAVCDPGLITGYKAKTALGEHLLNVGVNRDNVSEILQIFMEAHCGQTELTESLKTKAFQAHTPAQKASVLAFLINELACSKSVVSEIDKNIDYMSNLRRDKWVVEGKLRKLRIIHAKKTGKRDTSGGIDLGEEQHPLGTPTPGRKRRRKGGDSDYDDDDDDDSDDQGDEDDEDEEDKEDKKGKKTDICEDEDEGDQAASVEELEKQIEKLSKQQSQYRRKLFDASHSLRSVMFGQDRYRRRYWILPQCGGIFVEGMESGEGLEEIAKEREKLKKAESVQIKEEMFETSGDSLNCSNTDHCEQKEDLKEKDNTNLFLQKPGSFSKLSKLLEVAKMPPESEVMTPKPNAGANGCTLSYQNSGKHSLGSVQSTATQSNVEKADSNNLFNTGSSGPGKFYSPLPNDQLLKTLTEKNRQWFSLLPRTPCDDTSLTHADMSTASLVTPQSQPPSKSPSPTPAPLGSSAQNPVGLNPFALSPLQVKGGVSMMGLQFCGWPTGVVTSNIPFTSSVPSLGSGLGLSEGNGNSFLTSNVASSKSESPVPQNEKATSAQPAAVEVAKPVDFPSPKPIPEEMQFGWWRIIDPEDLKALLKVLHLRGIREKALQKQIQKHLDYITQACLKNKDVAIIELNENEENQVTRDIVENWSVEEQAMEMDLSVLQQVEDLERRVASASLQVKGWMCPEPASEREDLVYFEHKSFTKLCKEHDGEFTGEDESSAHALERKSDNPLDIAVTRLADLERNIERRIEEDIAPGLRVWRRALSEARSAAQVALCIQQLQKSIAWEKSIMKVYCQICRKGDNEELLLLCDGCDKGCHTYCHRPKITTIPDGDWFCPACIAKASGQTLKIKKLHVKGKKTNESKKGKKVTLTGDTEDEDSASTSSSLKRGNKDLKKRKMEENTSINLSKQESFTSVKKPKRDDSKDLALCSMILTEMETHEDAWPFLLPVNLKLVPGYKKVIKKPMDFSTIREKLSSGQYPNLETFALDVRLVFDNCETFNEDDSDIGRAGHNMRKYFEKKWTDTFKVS

Molecular target: Bromodomain adjacent to zinc finger domain protein 2B (Homo sapiens) (UniProt Q9UIF8)
Assay: qHTS Assay for Inhibitors of BAZ2B; also: nearly all actives have a fitted effect of over 60% in size
Conditions: AlphaScreen BAZ2B-H3K14Ac peptide displacement; series mostly up to 114 µM
Potency is read from the fitted curve at half-maximal effect.

Row | SMILES | Potency
1 | Cc1cc(=O)[nH]c(N[N+](=O)[O-])n1 | inactive
2 | O=C(OC1CN2CCC1CC2)C12CC3CC(CC(C3)C1)C2 (configuration not stated) | inactive
3 | Cc1c2c(nc3ccccc13)SC(C(Cl)Cl)C2 (configuration not stated) | inactive
4 | COc1cc(I)ccc1[As](=O)(O)O | inactive
5 | COc1ccc2nc(NP(=O)(c3ccccc3)c3ccccc3)sc2c1 | inactive
6 | COc1ccc(N/C(=N/P(=O)(N2CCOCC2)N2CCOCC2)N2CCOCC2)cc1 | inactive
7 | COc1cc(C(=O)NCC2(N3CCOCC3)CCCCC2)ccc1OCC(C)C | inactive
8 | O=[As](O)(c1ccc(O)cc1)c1ccccc1O | inactive
9 | C[As](=O)(O)c1cccc(C(=O)O)c1 | inactive
10 | Cc1ccc2nc3c(c(C)c2c1)CC(C(Cl)Cl)S3 (configuration not stated) | inactive
11 | Cc1ccc(OP(=O)(Nc2ccc([N+](=O)[O-])cn2)Oc2ccc(C)cc2)cc1 | inactive
12 | CC(C)c1ccc(OP(=O)(Nc2ccccn2)Oc2ccccc2F)cc1 (configuration not stated) | inactive
13 | ClCCSc1nnc(-c2cccnc2)o1 | inactive
14 | CCN(CC)C(=S)SC(NC=O)C(Cl)(Cl)Cl (configuration not stated) | inactive
15 | CC(C)NC(=O)NP(=O)(Oc1ccccc1)Oc1ccccc1 | inactive
16 | CCOC(=O)Nc1ccc([As](=O)(O)O)c(O)c1 | inactive
17 | Cc1cc(SC(NC(=O)c2ccccc2)C(Cl)(Cl)Cl)nc(C(C)C)n1 (configuration not stated) | inactive
18 | CCCCOc1ccc(C(=O)NCC2(N3CCCCC3)CCCCC2)cc1OC | inactive
19 | CCOC(=O)Nc1cccc([As](=O)(O)O)c1 | inactive
20 | O=[N+]([O-])c1ccc(Nc2ccc(Oc3ccc([N+](=O)[O-])cc3[N+](=O)[O-])cc2)c([N+](=O)[O-])c1 | inactive
21 | O=P(Nc1ccccn1)(c1cccc2ccccc12)c1cccc2ccccc12 | inactive
22 | Cc1cc(SC(NC=O)C(Cl)(Cl)Cl)ncn1 (configuration not stated) | active: 44.7 µM
23 | COP1(=S)c2c(C)nn(CCC#N)c2N=C(c2ccc(F)cc2)N1C (configuration not stated) | inactive

Row | SMILES | Potency
24 | O=C(Nc1ccncc1[N+](=O)[O-])c1ccc([N+](=O)[O-])cc1[N+](=O)[O-] | inactive
25 | O=C(COc1ccccc1)OC1CN2CCC1CC2 (configuration not stated) | inactive
26 | CCOC(=O)c1ccc(NC(=O)C(C)(CCl)SC)cc1 (configuration not stated) | inactive
27 | O=C(OC1CN2CCC1CC2)c1cccc([N+](=O)[O-])c1 (configuration not stated) | inactive
28 | CCC(C)N(CC(C)C)C(=S)SC(NC(C)=O)C(Cl)(Cl)Cl (configuration not stated) | inactive
29 | CCOP(=O)(Nc1ccc(C)cn1)OCC | inactive
30 | CCOP(=O)(NC(=NC(C)c1ccccc1)NC(C)c1ccccc1)OCC (configuration not stated) | inactive
31 | O=P1(Nc2ccccn2)COc2ccccc2OC1 | inactive
32 | CCC1=CC2Cc3nc4ccc(Cl)cc4c(N)c3C(C1)C2 (configuration not stated) | inactive
33 | CC(C)(C)C(=O)NC(Sc1ncccn1)C(Cl)(Cl)Cl (configuration not stated) | active: 79.4 µM
34 | Clc1n[nH]nc1-c1nn[nH][15n]1 | active: 50.1 µM
35 | COc1ccccc1CNC(=O)COC(=O)C(O)(c1ccccc1)c1ccccc1 | inactive
36 | O=[As](O)(c1ccccc1Br)c1ccccc1Br | inactive
37 | CC(C)/C=N\N=C(\N)N[N+](=O)[O-] | inactive
38 | CN(C(=O)Cc1ccc(Cl)c(Cl)c1)[C@@H]1CCCC[C@H]1N1CCCC1 | inactive
39 | CC1CCC(C(C)C)C(OP(=O)(Nc2ccccn2)c2ccccc2)C1 (configuration not stated) | inactive
40 | Cc1ccc(C(=O)OC2CN3CCC2CC3)cc1 (configuration not stated) | inactive
41 | Cc1nn(-c2ccccc2)c2c1P(=O)(N1CCOCC1)N(C)C(c1ccccc1)=N2 (configuration not stated) | inactive
42 | O=C(/C=C/c1ccccc1)OC1CN2CCC1CC2 (configuration not stated) | inactive
43 | CN(C)C1(CNC(=O)c2ccc(S(C)(=O)=O)cc2)CCCCC1 | inactive
44 | O=P1(Nc2ncccn2)COc2ccccc2OC1 | inactive
45 | O=P1(Nc2ccc(Br)cn2)COc2ccccc2OC1 | inactive
46 | NS(=O)(=O)c1cccc(NC(=O)COC(=O)C(O)(c2ccccc2)c2ccccc2)c1 | inactive

Row | SMILES | Potency
47 | Cc1ccc(OCC(=O)OC2CN3CCC2CC3)cc1 (configuration not stated) | inactive
48 | O=[As](O)(c1cccs1)c1cccs1 | inactive
49 | Nc1cccc([As](=O)(O)c2ccccc2)c1 | inactive
50 | CS(=O)(=O)c1cc([N+](=O)[O-])c2no[n+]([O-])c2c1 | active: 17.8 µM
51 | O=P(Nc1nccs1)(c1ccccc1)c1nc2ccccc2s1 (configuration not stated) | active: 5.62 µM
52 | O=P(Nc1nccs1)(Oc1ccccc1)Oc1ccccc1 | inactive
53 | CCOP1(=S)c2c(C)nn(CCC#N)c2N=C(c2ccccc2F)N1C (configuration not stated) | inactive
54 | Nc1ccccc1[As](=O)(O)c1ccccc1 | inactive
55 | O=C(O)COc1ccc([As](=O)(O)O)cc1[N+](=O)[O-] | inactive
56 | NC(=O)Nc1ccc([As](=O)(O)O)cc1 | inactive
57 | O=[N+]([O-])c1ccc2c(c1)nnn2O | inactive
58 | CCOP1(=S)c2c(C)nn(CCC#N)c2N=C(c2ccc(F)cc2)N1C (configuration not stated) | inactive
59 | CN(C(=O)Cc1ccccc1)[C@@H]1CC[C@]2(CCCO2)C[C@H]1N1CCCC1 | inactive
60 | N#CCCN(C(=O)COC(=O)C(O)(c1ccccc1)c1ccccc1)c1ccc(F)cc1 | inactive
61 | CS(=O)(=O)c1ccc(Cl)c(NC(=O)COC(=O)C(O)(c2ccccc2)c2ccccc2)c1 | inactive
62 | COc1cc(C(=O)NCC2(N3CCOCC3)CCCCC2)cc(Cl)c1OC(C)C | inactive
63 | O=[As](O)(O)c1cccnc1 | inactive
64 | O=C(OC1CN2CCC1CC2)c1ccc(Cl)cc1 (configuration not stated) | inactive
65 | O=[As](O)(c1cccc(O)c1)c1cccc(O)c1 | inactive
66 | Cc1cccc(OCC(=O)OC2CN3CCC2CC3)c1 (configuration not stated) | inactive
67 | CCCOP(=S)(Nc1nc(N)cc(=O)[nH]1)OCCC | inactive
68 | Cc1ccc(NCCc2c([N+](=O)[O-])cc([N+](=O)[O-])cc2[N+](=O)[O-])cc1 | active: 12.6 µM
69 | Nc1cccc2c([As](=O)(O)O)cccc12 | inactive

Row | SMILES | Potency
70 | CCOP(=O)(Nc1cccc2ccccc12)OCC | inactive
71 | COc1cc(C2NCCC3(OCCO3)C2(C)C)cc(OC)c1OC (configuration not stated) | inactive
72 | CC(C)(C)C(=O)NC(Sc1ccccc1)C(Cl)(Cl)Cl (configuration not stated) | inactive
73 | CC(=O)c1ccc(N2CC2c2ccncc2)cc1 (configuration not stated) | inactive
74 | C[C@@H]1C=CCP(=O)(Oc2ccccc2)O1 (some centres not stated) | inactive
75 | C[C@H]1OP(=O)(Oc2ccccc2)C[C@@H]2O[C@@H]21 (some centres not stated) | inactive
76 | Cc1ccccc1CN(C)C(=O)COC(=O)C(O)(c1ccccc1)c1ccccc1 | inactive
77 | CC(=O)Nc1ccc([As](=O)(O)O)c(O)c1 | inactive
78 | CCNC(=S)/N=C(\N)N[N+](=O)[O-] | inactive
79 | O=C(NC1CCS(=O)(=O)C1)NP(=S)(Oc1ccccc1)Oc1ccccc1 (configuration not stated) | inactive
80 | Cc1ccc(NP(=O)(Oc2cccc(C)c2)Oc2cccc(C)c2)nc1 | inactive
81 | CCOC(=O)NC(Sc1ccccc1)C(Cl)(Cl)Cl (configuration not stated) | inactive
82 | c1ccc(-c2nn[nH]n2)c(-c2nn[nH]n2)c1 | active: 5.01 µM
83 | CC(=O)NC(SC(=S)N(CC(C)C)CC(C)C)C(Cl)(Cl)Cl (configuration not stated) | inactive
84 | Cc1ccc(OP(=O)(Nc2ccccn2)Oc2ccc(C)cc2)cc1 | inactive
85 | COC(=O)c1cc2c(s1)N=C(c1ccccc1)N(C)P2(=O)N1CCOCC1 (configuration not stated) | inactive
86 | CCC(=O)N1C2C3N(C(=O)CC)C1C1N(C(=O)CC)C(C(N1C(=O)CC)N3C(=O)CC)N2C(=O)CC | inactive
87 | O=C(OC1CN2CCC1CC2)c1ccccc1 (configuration not stated) | inactive
88 | CN(C)C(=O)Oc1noc2ccccc12 | inactive
89 | Cc1ccccc1OP(=O)(Nc1ccccn1)Oc1ccccc1C | inactive
90 | O=P(Nc1ccccn1)(c1ccc(Br)cc1)c1ccc(Br)cc1 | inactive
91 | CN(C)C1(CNC(=O)c2ccc(Cl)c(S(N)(=O)=O)c2)CCCCC1 | inactive
92 | C[C@H]1OP(=O)(Oc2ccccc2)[C@H](O)[C@H](O)[C@H]1N=[N+]=[N-] (some centres not stated) | inactive

Row | SMILES | Potency
93 | O=P(Nc1nc2ccccc2s1)(c1ccccc1)c1ccccc1 | inactive
94 | CC(=O)NC(SC(=S)N(C)C)C(Cl)(Cl)Cl (configuration not stated) | inactive
95 | O=[N+]([O-])c1ncn(CCn2cnc([N+](=O)[O-])n2)n1 | inactive
96 | O=[As](O)(c1ccccc1)c1ccc(O)cc1 | inactive
97 | Nc1ccc([As](=O)(O)c2ccc([N+](=O)[O-])cc2)cc1 | inactive
98 | O=C(OC1CN2CCC1CC2)c1cccc(Cl)c1 (configuration not stated) | inactive
99 | CC(C)C(=O)NC(Sc1ccccc1)C(Cl)(Cl)Cl (configuration not stated) | inactive
100 | O=P(Nc1nccs1)(c1ccccc1)c1ccccc1 | inactive
101 | c1nnnn1CCn1cnnn1 | inactive
102 | COc1ccc(C2=NCC(CBr)S2)cc1 (configuration not stated) | inactive
103 | O=[N+]([O-])c1cccc2n[nH]nc12 | inactive
104 | CC(=O)N1C2C3N(C(C)=O)C1C1N(C(C)=O)C(C(N1C(C)=O)N3C(C)=O)N2C(C)=O | inactive
105 | CCc1nc2c(n1)c1c(non1O)c1c2no[n+]1[O-] | inactive
106 | O=[N+]([O-])c1cc([N+](=O)[O-])c(CCNc2ccccc2)c([N+](=O)[O-])c1 | active: 5.62 µM
107 | Cc1ccc(NP(=O)(Oc2ccccc2)Oc2ccccc2)nc1 | inactive
108 | Nc1ccc([As](=O)(O)c2ccc(N)cc2)cc1 | inactive
109 | CCN(/C(=N/P(=O)(N1CCOCC1)N1CCOCC1)N1CCOCC1)c1ccc(OC)cc1 | inactive
110 | CN(C)C(=O)OCCc1n(C)cc[n+]1C | inactive
111 | CC(C)=N/N=C(\N)N[N+](=O)[O-] | inactive
112 | CC1CCN(C(=O)Oc2c(Cl)cc(Cl)c3cccnc23)CC1 | inactive
113 | O=C(Nc1cc([As](=O)(O)O)ccc1O)c1ccccc1 | inactive
114 | CC(C)(C)C(=O)NC(Sc1ccncn1)C(Cl)(Cl)Cl (configuration not stated) | active: 50.1 µM
115 | O=[N+]([O-])c1ncn(CCn2ncnc2[N+](=O)[O-])n1 | inactive

Row | SMILES | Potency
116 | O=[N+]([O-])c1cccc(NC2=NCC(CBr)S2)c1 (configuration not stated) | inactive
117 | O=C(O)CNc1ccc([As](=O)(O)O)cc1 | inactive
118 | O=C(O)c1ccccc1[As](=O)(O)O | inactive
119 | CC(=O)Nc1ccc([As](=O)(O)O)cc1 | inactive
120 | O=P(Nc1nc2ccc(Cl)cc2s1)(c1ccccc1)c1ccccc1 | inactive
121 | Cc1ccc(NP(=O)(Oc2ccccc2F)Oc2ccccc2F)nc1 | inactive
122 | CCOP(=O)(Nc1ccccc1)OCC | inactive
123 | Cc1cc(SC(NC(=O)c2ccc(F)cc2)C(Cl)(Cl)Cl)ncn1 (configuration not stated) | active: 50.1 µM
124 | O=[N+]([O-])c1cc([N+](=O)[O-])c(CCN2CCOCC2)c([N+](=O)[O-])c1 | active: 39.8 µM
125 | CCN(N=Nc1nonc1N)c1nonc1N | inactive
126 | Nc1cccc2ccc([As](=O)(O)O)cc12 | inactive
127 | NC(=O)c1cc([N+](=O)[O-])cc([N+](=O)[O-])c1N | inactive
128 | CC1=NCCc2c1[nH]c1ccccc21 | active: 35.5 µM
129 | CN(C(=O)Cc1ccc(Cl)c(Cl)c1)[C@H]1CCCC[C@H]1N1CCCC1 | inactive
130 | Cc1ccc(OP(=O)(Nc2nccs2)Oc2ccc(C)cc2)cc1 | inactive
131 | COc1ccccc1OP(=O)(Nc1ccc(C)cn1)Oc1ccccc1OC | inactive
132 | Clc1ccc(Cl)c(NC2=NCC(CBr)S2)c1 (configuration not stated) | inactive
133 | CN1CCCC(OC(=O)C(c2ccccc2)c2ccccc2)C1 (configuration not stated) | inactive
134 | CC(C)CC(=O)NC(Sc1ccc(Cl)cc1)C(Cl)(Cl)Cl (configuration not stated) | inactive
135 | Nc1cc(N)c2nonc2c1[N+](=O)[O-] | inactive
136 | O=C(NC(Sc1ccncn1)C(Cl)(Cl)Cl)c1ccccc1 (configuration not stated) | active: 50.1 µM
137 | Oc1ccccc1CNc1ccccn1 | inactive
